The target in test [1] is full length recombinant Pim-1 protein (Homo sapiens, UniProt P11309). Put plainly: Pim-1 enzyme assay (HTRF, phosphorylation of biotinylated-BAD (S112) peptide). It counts as biochemical. Particulars: read-out: Pim_1_IC50. In general terms: In TR-FRET formats the signal depends on donor and acceptor labels being close together.
Test [2] addresses full length recombinant Pim-2 protein (Homo sapiens, UniProt Q9P1W9). Put plainly: Pim-2 enzyme assay (HTRF, phosphorylation of biotinylated-BAD (S112) peptide). The class given is biochemical. The note with it: read-out: Pim2_IC50.
The subject of test [3] is KMS-Cell. Put plainly: KMS cell IC50 (Table 4). It counts as cell-based. Particulars: read-out: KMS-Cell-IC50, KMS cells.
Test [4] concerns the target Pim-1 stably transfected into the U2OS human osteogenic sarcoma line (Homo sapiens, UniProt P11309). Put plainly: Pim cell assay, phospho-BAD normalized against total BAD, U2OS stably transfected with Pim-1.
Test [5] deals with Pim-2 stably transfected into the U2OS human osteogenic sarcoma line (Homo sapiens, UniProt Q9P1W9). Put plainly: Pim cell assay, phospho-BAD normalized against total BAD, U2OS stably transfected with Pim-2.
[6] abbreviates: tested form: racemic cis pair, (3R,4S) and (3S,4R), t.
The mark [7] stands for this setting: tested form: racemate: mixture of the (3S,4S) and (3R).
Where [8] appears, read: tested form: single trans enantiomer, (3S,4S) or (3R).
Where [9] appears, read: tested form: racemate: mixture of the (3S,5R) and (3R).
Where [10] appears, read: tested form: racemic cis pair: (3R,4S) and (3S,4R) en.
Setting [11] is: tested form: racemic trans pair: (3R,4R) and (3S,4S).
[12] abbreviates: tested form: racemic trans mixture, (3S,4S) and (3R,4).
Where [13] appears, read: tested form: racemic trans pair, (3R,4R) and (3S,4S).
[14] abbreviates: read-out: Pim1_Cell_IC50_, 29 min incubation.
The mark [15] stands for this setting: tested form: racemate (4R and 4S).
The mark [16] stands for this setting: tested form: racemate (8S and 8R).

Chains of the proteins cited; added tags and fusions are not shown.
UniProt P11309, whole entry: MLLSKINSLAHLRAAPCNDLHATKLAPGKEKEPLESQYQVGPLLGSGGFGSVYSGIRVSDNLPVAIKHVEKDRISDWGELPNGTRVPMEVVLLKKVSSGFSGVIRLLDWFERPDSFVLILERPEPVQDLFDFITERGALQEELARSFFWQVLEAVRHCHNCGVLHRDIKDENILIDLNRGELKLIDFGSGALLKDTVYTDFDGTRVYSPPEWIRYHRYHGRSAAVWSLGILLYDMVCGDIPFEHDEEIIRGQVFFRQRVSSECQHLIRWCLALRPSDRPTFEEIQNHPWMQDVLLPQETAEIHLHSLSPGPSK
UniProt Q9P1W9, whole entry: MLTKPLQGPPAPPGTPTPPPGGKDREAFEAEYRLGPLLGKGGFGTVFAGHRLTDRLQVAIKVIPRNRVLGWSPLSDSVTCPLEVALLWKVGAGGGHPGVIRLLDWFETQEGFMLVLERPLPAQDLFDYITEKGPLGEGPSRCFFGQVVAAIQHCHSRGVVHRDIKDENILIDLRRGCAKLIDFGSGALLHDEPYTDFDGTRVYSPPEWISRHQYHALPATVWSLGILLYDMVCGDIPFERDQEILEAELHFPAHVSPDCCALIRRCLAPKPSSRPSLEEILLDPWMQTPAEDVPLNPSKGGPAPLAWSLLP

Molecules are shown by their SMILES. Where two headings read alike, the source gives them in different places. A value given as a limit tells only on which side of the number the result lay.

As to `O=c1cc(-c2n[nH]c3ccc(-c4c(F)cccc4F)cc23)nc(OC2CCNCC2F)[nH]1` (single isomer, unassigned), the IC50 in test [1] turned out to be 1 nM; in test [1] (setting [6]), 3 nM; in test [2], 3 nM; in test [2] (setting [6]) it was 9 nM; in test [3] it was 1500 nM; in test [3] (setting [6]), 4680 nM.

In the case of `C[C@@H]1CNC[C@@H](Nc2nc(-c3n[nH]c4ccc(-c5c(F)cccc5F)cc34)cc(=O)[nH]2)C1` (relative stereo), the figures for the IC50 in test [1], in test [2] and in test [3] were 1 nM, 2 nM and 4890 nM, respectively.

On to `N#Cc1ccncc1-c1ccc2[nH]nc(-c3cc(=O)[nH]c(OC4CNCCC4F)n3)c2c1` (centres unmarked), for which the IC50 was 5 nM in test [1], 12 nM in test [2] and greater than 31600 nM in test [3].

Regarding `CC(C)C1CCNCC1Oc1cncc(-c2n[nH]c3ccc(-c4c(F)cccc4F)cc23)n1` (centres unmarked), the IC50 in test [1] (setting [7]) stood at 13 nM; in test [2] (setting [7]), 16 nM; in test [3] (setting [7]), 9970 nM.

Take `CC1CNCC(Nc2nc(-c3n[nH]c4cc(F)c(-c5c(F)cccc5F)cc34)cc(=O)[nH]2)C1` (centres unmarked): the IC50 came to 1 nM in test [1], 4 nM in test [2] and 6690 nM in test [3].

Consider `CS(=O)(=O)c1ccc(-c2ccc3[nH]nc(-c4cc(=O)[nH]c(OC5CNCCC5F)n4)c3c2)c(F)c1` (centres unmarked), for which the IC50 in test [1] (setting [8]) amounted to 1 nM; in test [2] (setting [8]), 1 nM; in test [3] (setting [8]), 3610 nM.

For the molecule `CC1CNCC(Nc2nc(-c3n[nH]c4ccc(-c5c(F)cccc5F)cc34)cc(=O)[nH]2)C1` (centres unmarked), the values for the IC50 in test [1] (setting [9]), in test [2] (setting [9]) and in test [3] (setting [9]) were 1 nM, 3 nM and 12000 nM, respectively.

With `FC1CNCCC1Oc1cncc(-c2n[nH]c3ccc(-c4cncc(C5CC5)n4)cc23)n1` (single isomer, unassigned), the IC50 was 1 nM in test [1] (setting [10]); 14 nM in test [2] (setting [10]); 4 nM in test [2] (setting [11]); 50 nM in test [4] (read-out: Pim1_Cell_IC50_, 29 min incubation, tested form: racemic cis pair: (3R,4S) and (3S,4R) en); 51 nM in test [4] (read-out: Pim1_Cell_IC50_, 29 min incubation, tested form: racemic trans pair: (3R,4R) and (3S,4S)); greater than 15800 nM in test [5] (read-out: Pim2_Cell_IC50_, 29 min incubation, tested form: racemic cis pair: (3R,4S) and (3S,4R) en). Moreover, the IC50 in test [5] (read-out: Pim2_Cell_IC50_, 29 min incubation, tested form: racemic trans pair: (3R,4R) and (3S,4S)) was 4310 nM; in test [3] (setting [11]), 2450 nM.

With `O=c1cc(-c2n[nH]c3ccc(-c4ccc(F)cc4F)cc23)nc(OC2CNCCC2F)[nH]1` (centres unmarked), the IC50 in test [1] (setting [12]) turned out to be 1 nM; in test [2] (setting [12]), 1 nM; in test [3] (setting [12]) it was 970 nM.

With `O=c1cc(-c2n[nH]c3ccc(-c4cccnc4F)cc23)nc(OC2CNCCC2F)[nH]1` (centres unmarked), the figures for the IC50 in test [1] (setting [13]), in test [2] (setting [13]) and in test [3] (setting [13]) were 1 nM, 3 nM and 2740 nM, respectively.

As for `CC1(C)CNCCC1Oc1cncc(-c2n[nH]c3ccc(-c4c(F)cccc4F)cc23)n1` (centres unmarked), the figures for the IC50 in test [1], in test [2] and in test [4] (setting [14]) were 4 nM, 55 nM and 1540 nM, respectively.

`CC[C@@H]1CCNC[C@H]1Oc1cncc(-c2n[nH]c3ccc(-c4c(F)cccc4F)cc23)n1` [Example 397]: the IC50 amounted to 13 nM in test [1], 14 nM in test [2] and 8010 nM in test [3].

With `Fc1cccc(F)c1-c1ccc2[nH]cc(-c3cncc(OC4CNCCC45CC5)n3)c2c1` (centres unmarked), the IC50 is 1 nM in test [1] (setting [15]); 2 nM in test [2] (setting [15]); 180 nM in test [4] (read-out: Pim1_Cell_IC50_, 29 min incubation, tested form: racemate (4R and 4S)); 2490 nM in test [5] (read-out: Pim2_Cell_IC50_, 29 min incubation, tested form: racemate (4R and 4S)).

Turning to `Fc1cccc(F)c1-c1ccc2[nH]nc(-c3cncc(OC4CCNCC45CC5)n3)c2c1` (centres unmarked), the IC50 in test [1] (setting [16]) came out at 1 nM; in test [2] (setting [16]), 6 nM; in test [3] (setting [16]), 7870 nM.

As for `C[C@H]1CNC[C@@H](Nc2nc(-c3n[nH]c4cc(F)c(-c5c(F)cccc5F)cc34)cc(=O)[nH]2)C1`, the figures for the IC50 in test [1], in test [2] and in test [3] were 1 nM, 5 nM and 11200 nM, respectively.

For the molecule `Brc1ccc2[nH]nc(-c3cncc(OC4CNCCC45CC5)n3)c2c1` (centres unmarked), the IC50 in test [1] amounted to 25 nM; in test [2], 42 nM.

For the molecule `Fc1cccc(F)c1-c1ccc2[nH]nc(-c3cncc(OC4C=CCNC4)n3)c2c1` (centres unmarked), the IC50 is 46 nM in test [2]; 1390 nM in test [4] (setting [14]); greater than 15800 nM in test [5] (read-out: Pim2_Cell_IC50_, 29 min incubation).

On to `C[C@@H]1CNC[C@H](Oc2nc(O)cc(-c3n[nH]c4ccc(-c5c(F)cccc5F)cc34)n2)C1`, for which the IC50 amounted to 1 nM in test [1], 2 nM in test [2] and 1330 nM in test [3].

The values are drawn from patent publication US9090593B2, “Bicyclic compounds as Pim inhibitors” (AMGEN INC., priority 2010, dated 2015).
